The target in assay [1] is T1, Adenosine receptor A2a (Rattus norvegicus, UniProt P30543).
In assay [2] the target is T1, Adenosine receptor A2a. The source holds these as a separate data set.

By UniProt entry, the sequences of proteins in these tests, tags left out.
UniProt P30543, whole entry: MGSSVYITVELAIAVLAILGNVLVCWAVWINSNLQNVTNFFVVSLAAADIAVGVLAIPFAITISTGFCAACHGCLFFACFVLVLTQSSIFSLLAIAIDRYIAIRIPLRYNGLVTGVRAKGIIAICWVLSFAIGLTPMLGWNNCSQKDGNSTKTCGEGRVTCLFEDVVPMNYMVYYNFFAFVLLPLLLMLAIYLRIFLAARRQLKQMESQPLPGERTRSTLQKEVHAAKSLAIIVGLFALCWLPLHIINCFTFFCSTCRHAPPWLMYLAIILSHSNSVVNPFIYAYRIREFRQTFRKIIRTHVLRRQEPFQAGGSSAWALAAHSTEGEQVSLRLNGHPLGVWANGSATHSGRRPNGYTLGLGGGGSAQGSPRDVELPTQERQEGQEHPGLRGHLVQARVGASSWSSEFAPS

Structures are written as SMILES.

As usually defined, the Ki is the dissociation constant of the complex between target and ligand, obtained from inhibition or displacement. High values mean a looser hold on the target, low ones a stronger hold on the target. The term EC50 denotes the concentration needed to bring the measured effect to its halfway point. Higher therefore signals a less potent agent.

`CCCCC#Cc1nc(N)c2ncn([C@@H]3O[C@H](CO)[C@@H](O)[C@H]3O)c2n1` yielded a Ki at Adenosine receptor A2a [1] of 2.2 nM. On Adenosine receptor A2a [2], this compound yielded an EC50 of 79.2 nM.

The values above are taken from ChEMBL document CHEMBL1129447, “2-alkenyl and 2-alkyl derivatives of adenosine and adenosine-5'-N-ethyluronamide: different affinity and selectivity of E- and Z-diastereomers at A2A adenosine receptors” (J Med Chem, 1996).
